These results are taken from patent US9040563B2, “Dual inhibitors of farnesyltransferase and geranylgeranyltransferase I” (H. Lee Moffitt Cancer Center and Research Institute, Inc., priority 2010, dated 2015).

Chains of the proteins cited; added tags and fusions are not shown.
UniProt P49356, whole entry: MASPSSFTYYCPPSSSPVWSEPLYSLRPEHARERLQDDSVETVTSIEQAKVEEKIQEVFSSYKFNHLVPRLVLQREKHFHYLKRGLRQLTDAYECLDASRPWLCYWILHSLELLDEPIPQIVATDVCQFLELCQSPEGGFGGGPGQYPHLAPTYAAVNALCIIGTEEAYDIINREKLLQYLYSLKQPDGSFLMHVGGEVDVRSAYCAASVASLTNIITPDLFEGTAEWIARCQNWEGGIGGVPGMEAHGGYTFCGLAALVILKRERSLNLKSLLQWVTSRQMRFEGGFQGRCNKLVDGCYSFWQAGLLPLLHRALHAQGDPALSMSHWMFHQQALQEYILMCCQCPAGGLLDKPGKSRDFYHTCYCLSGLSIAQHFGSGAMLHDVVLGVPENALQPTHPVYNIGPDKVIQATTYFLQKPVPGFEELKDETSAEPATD

The target of the experiment is hFTase (Homo sapiens, UniProt P49354+P49356). Briefly: In vitro hFTase inhibition: incorporation of [3H]FPP into recombinant H-Ras-CVLS. The experiment is classed as biochemical. The settings on record: read-out: hFTase IC50, average of three independent assays (n = 3) unless stated, errors are standard deviations.

As a reminder, the IC50 is the concentration that gives 50% inhibition. As to `Cn1cnc(S(=O)(=O)N(CCN(Cc2cncn2C)c2ccc(C#N)cc2)CC2CCCCC2)c1`, the half-maximal inhibitory concentration (IC50) amounted to 60 nM.
